Target: T1, human transferrin receptor (hTfR) (Homo sapiens, UniProt P02786)
T1 construct: made in house
Test: Evaluation of molecular interaction between transferrin receptor (hTfR) and peptide using surface plasmon resonance (SPR)
Assay type: binding
Conditions: KD class of peptide with linker binding to hTfR, by SPR (TABLE 5); read-out: SPR
In short: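 Steps: NTA chip loaded with NiCl2, activated with EDC/NHS, coated with 0.5 μM hTfR dimer, capped with ethanolamine. Peptides diluted from DMSO stock into running buffer (pH 8.0, 1.0% DMSO) at 5–100 nM and injected in single-cycle mode. Sensorgrams fitted to give KD.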

Chains of the proteins cited; added tags and fusions are not shown. Residues count along the entry.
UniProt P02786, 89-760 limits assumed: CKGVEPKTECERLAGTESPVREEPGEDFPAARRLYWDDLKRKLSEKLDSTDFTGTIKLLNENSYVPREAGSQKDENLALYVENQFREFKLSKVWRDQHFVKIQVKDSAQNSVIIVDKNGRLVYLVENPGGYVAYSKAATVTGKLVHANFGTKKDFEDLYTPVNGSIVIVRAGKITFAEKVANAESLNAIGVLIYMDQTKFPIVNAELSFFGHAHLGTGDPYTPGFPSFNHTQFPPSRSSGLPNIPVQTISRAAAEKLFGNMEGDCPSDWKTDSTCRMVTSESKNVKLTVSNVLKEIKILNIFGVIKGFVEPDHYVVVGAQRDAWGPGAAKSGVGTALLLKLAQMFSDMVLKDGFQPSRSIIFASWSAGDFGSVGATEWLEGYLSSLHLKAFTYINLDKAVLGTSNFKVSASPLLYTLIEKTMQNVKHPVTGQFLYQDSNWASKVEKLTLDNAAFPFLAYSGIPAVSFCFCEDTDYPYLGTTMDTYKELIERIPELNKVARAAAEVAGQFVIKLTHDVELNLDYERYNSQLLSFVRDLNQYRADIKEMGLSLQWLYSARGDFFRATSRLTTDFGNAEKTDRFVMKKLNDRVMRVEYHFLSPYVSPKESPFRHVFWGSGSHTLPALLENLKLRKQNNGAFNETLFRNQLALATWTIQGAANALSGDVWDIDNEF

| Kd [nM] | SMILES |
| --- | --- |
| 1 to 100 | CC[C@H](C)[C@@H]1NC(=O)[C@H](Cc2ccc(OCC(=O)O)cc2)NC(=O)[C@H](Cc2ccc(O)cc2)NC(=O)[C@H](CC(N)=O)NC(=O)[C@H](Cc2cn(CC(=O)O)c3ccccc23)NC(=O)[C@H](C(C)C)NC(=O)[C@H](Cc2cccc(Cl)c2)N(C)C(=O)[C@H](C(C)C)NC(=O)[C@H](C)NC(=O)CSC[C@@H](C(=O)NCC(=O)N[C@H](CO)C(=O)N[C@H](CO)C(=O)N[C@H](CO)C(=O)N[C@H](CO)C(=O)N[C@H](CO)C(=O)N[C@@H](CCCCN=[N+]=[N-])C(N)=O)NC(=O)[C@H](Cc2ccc(O)cc2)N(C)C(=O)[C@H](Cc2cccc(C(=O)O)c2)NC(=O)[C@H](CCCCN2CCOCC2)NC(=O)[C@H](CCCCN2CCOCC2)NC(=O)[C@H]([C@@H](C)CC)NC1=O [compound 354] |
| 1 to 100 | CC[C@H](C)[C@@H]1NC(=O)[C@H](Cc2ccc(OCC(=O)O)cc2)NC(=O)[C@H](Cc2ccc(O)cc2)NC(=O)[C@H](CC(N)=O)NC(=O)[C@H](Cc2cn(CC(=O)O)c3ccccc23)NC(=O)[C@H](C(C)C)NC(=O)[C@H](Cc2cccc(Cl)c2)N(C)C(=O)[C@H](C(C)C)NC(=O)[C@H](C)NC(=O)CSC[C@@H](C(=O)NCC(=O)N[C@H](CO)C(=O)N[C@H](CO)C(=O)N[C@H](CO)C(=O)N[C@H](CO)C(=O)N[C@H](CO)C(=O)N[C@@H](CCCCN=[N+]=[N-])C(N)=O)NC(=O)[C@H](Cc2ccc(O)cc2)N(C)C(=O)[C@H](Cc2cccc(C(=O)O)c2)NC(=O)[C@H](CCCNC(=N)N)NC(=O)[C@H](CCC(N)=O)NC(=O)[C@H]([C@@H](C)CC)NC1=O [compound 355] |
| < 1 | CC[C@H](C)[C@@H]1NC(=O)[C@H](Cc2ccc(OCC(=O)O)cc2)NC(=O)[C@H](Cc2ccc(O)cc2)NC(=O)[C@H](CC(N)=O)NC(=O)[C@H](Cc2cn(CC(=O)O)c3ccccc23)NC(=O)[C@H](C(C)C)NC(=O)[C@H](Cc2cccc(Cl)c2)N(C)C(=O)[C@H](C(C)C)NC(=O)[C@H](C)NC(=O)CSC[C@@H](C(=O)NCC(=O)N[C@@H](CCCCN=[N+]=[N-])C(N)=O)NC(=O)[C@H](Cc2ccc(O)cc2)N(C)C(=O)[C@H](Cc2cccc(C(=O)O)c2)NC(=O)[C@H](CCCNC(=N)N)NC(=O)[C@H](CCC(N)=O)NC(=O)[C@H]([C@@H](C)CC)NC1=O [compound 356] |
